# Sfp PPTase inh – blocks B. subtilis Sfp PPTase activity | Biochemical Sfp PPTase activity, qHTS | AID 1490 | actives 3.5% (n = 310,000) | Potency, µM, usual class: inhibitors | Q9F4F7;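 note: the enzyme is Sfp with the accession as filed and its product quenches rhodamine fluorescence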
#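 After 15 min at room temperature with compound, 15 nM Sfp received 5 uM rhodamine-CoA plus 12.5 uM BHQ-2-ybbR (50 mM Hepes pH 7.6, 10 mM MgCl2). Rate came from the fluorescence difference over 30 min, ex 525/em 598 nm.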
# miR-21 FLuc – miR-21 reporter, rising signal. HeLa miR-21 FLuc reporter, luciferase, 48 h. Potency, µM (titrated, usually from 38.3 µM). 340,000 tested, under 10 active. AID 2288; active = well fitted rising curve with a large enough effect; inconclusive = small, poorly fitted or top-dose-only effect; inactive = no such curve, though single readings can be large or run the other way;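 also: miR-21 action dims this reporter so a rising signal means less miR-21 action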
#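 Using DMEM plus 10% FBS, HeLa miR-21-FLuc cells are incubated with test compounds (final up to about 40uM) for 48 hours; firefly luciferase signal is then imaged following reagent-mediated lysis.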
# KDM4E inh – inhibitors of human JMJD2E histone demethylase | B2RXH2 | JMJD2E catalytic domain, FDH-coupled NADH fluorescence (FDH is formaldehyde dehydrogenase) | Potency, µM (doses to about 57.1 µM), actives largely listed as inhibitors | actives 1.6% (n = 230,000); active = well fitted inhibition curve with a large enough effect, not every such curve was filed as active; inconclusive = small, poorly fitted or top-dose-only effect, or another doubt; inactive = no such curve, though single readings can be large or run the other way; note: nearly all actives have a fitted effect of over 50% in size
# Lamin A splicing – changes lamin A minigene splicing in HeLa cells. AID 1487. Potency, µM (highest dose often 46.1 µM), usual class: inhibitors. actives 0.01% (n = 200,000). HeLa LMNA splicing GFP/RFP minigene ratio, 48 h; active = well fitted inhibition curve with a large enough effect in the signal ratio, with a control signal flat, not every such curve was filed as active; inconclusive = small, poorly fitted or top-dose-only effect, or effect the other way, or a change in a side signal; the % refers to the signal ratio
#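 S3 HeLa cells stably expressing lamin A-EGFP splicing minigene plus DsRed2, 600 cells/well, 48 h compound exposure at 37C. Laser-scanning cytometry; analysed as GFP (500-530 nm)/RFP (575-640 nm) total intensity ratio; 0.5% DMSO vehicle.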
# G9a inh – blocks human histone lysine methyltransferase G9a | Q96KQ7 | G9a H3K9 monomethylation, AlphaScreen, 2 h | Potency, µM (top dose mostly 102 µM), most hits filed as inhibitors | actives 8.8% (n = 350,000) | AID 504332; note: nearly all actives have a fitted effect of over 75% in size
#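 G9a (20 nM) preincubated 15 min RT with compounds, then 500 nM biotinylated H3K9 peptide and 20 uM SAM added; 2 h RT reaction. Monomethyl-H3K9 product detected by AlphaScreen with anti-H3K9me1 antibody, streptavidin donor and anti-rabbit IgG acceptor beads.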
# ALDH1A1 block – inhibitors of human aldehyde dehydrogenase 1A1; P00352; Purified ALDH1A1, NADH fluorescence, propionaldehyde substrate; Potency, µM (titrated, usually from 75.3 µM), actives largely listed as inhibitors; actives 7.3% (n = 220,000); active = well fitted inhibition curve with a large enough effect, not every such curve was filed as active; inconclusive = small, poorly fitted or top-dose-only effect, or another doubt; inactive = no such curve, though single readings can be large or run the other way
# A number is an active result; . = inactive; ? = inconclusive; / = no result; [ ] = dose if it differs, or a comment. A selection: hits, their analogues and other compounds. The true share with any hit is near 13%. Unless noted, calls come from the whole dose curve; as a rule, active = well fitted curve in the direction sought with a large enough effect; inconclusive = small, poorly fitted or top-dose-only effect, or another doubt; inactive = no such curve, though single readings can be large; an effect the other way counts as inactive or inconclusive.
SMILES,Sfp PPTase inh,miR-21 FLuc,KDM4E inh,Lamin A splicing,G9a inh,ALDH1A1 block
CC(C)(C)OC(=O)N1CCC(c2cc(=O)n3[nH]cc(C(=O)Nc4ccc(F)c(Cl)c4)c3n2)CC1,.,.,.,/,.,/
COc1cc(OC)cc(-c2nc3nc(C)c(CCC(=O)Nc4ccc(F)cc4F)c(C)n3n2)c1,/,.,/,/,.,/
COc1ccc(C(=O)c2cc(C(C)=O)c(Nc3ccccc3)s2)cc1,50.1µM,.,?,?,.,?
COc1ccc(C(=O)c2sc(Nc3ccccc3)nc2N)cc1,.,.,/,?,.,/
COc1ccc(CCNC(=O)Cn2c(=O)n(-c3cc(F)ccc3F)c(=O)c3sccc32)cc1OC,.,.,.,/,.,1µM
O=C(CN1C(=O)CCc2cc(S(=O)(=O)N3CCOCC3)ccc21)NCc1ccc(F)cc1,/,.,/,.,.,/
Cc1csc(C(C)N(C)C(=O)c2ccc(OC3CCN(Cc4ccccn4)CC3)cc2)n1 (stereo not drawn),.,.,/,/,70.8µM,/
CC(C)N(Cc1cnn(C)c1)C(=O)c1ccc(OC2CCN(Cc3ccccn3)CC2)cc1,.,.,/,/,44.7µM,/
CCC(O)C1CCN(C(=O)c2ccc(OC3CCN(Cc4ccccn4)CC3)cc2)CC1 (stereo not drawn),.,.,/,/,.,/
CC(=O)N1CCN(C(=O)c2ccc(OC3CCN(Cc4ccccn4)CC3)cc2)CC1,.,.,/,/,70.8µM,/
O=C(COC(=O)C12CC3CC(CC(Br)(C3)C1)C2)Nc1ccc2[nH]c(=O)[nH]c2c1,/,/,/,/,.,/
Cc1cccc(NC(=O)c2sc3nc(-c4ccccc4)cn3c2C)c1C,/,.,/,?,.,/
CCn1cnc2cc(NCc3ccc(Cl)cc3)ccc21,.,.,/,/,50.1µM,/
Cc1ccc(CNc2ccc3c(c2)ncn3C)cc1,.,.,?,.,0.708µM,?
CCn1cnc2cc(NC(=O)c3ccco3)ccc21,.,.,.,.,.,.
Cc1ccc(CNc2ccc3c(c2)ncn3C(C)(C)C)cc1,.,.,?,.,7.08µM,?
CC(C)(C)n1cnc2cc(NCc3ccccc3Cl)ccc21,/,.,/,/,15.8µM,/
Cc1cccc(NS(=O)(=O)c2cn(C)c(=O)n(C)c2=O)c1C,.,.,/,/,.,/
Cc1ccc(-c2ccc(OC(=O)c3ccc(=O)[nH]c3)c(C)c2)cc1,.,.,/,/,.,/
CCn1ncc([N+](=O)[O-])c1C(=O)NC1CCCCC1,.,.,.,/,.[0.501 µM],.
O=C(NC1CCCc2ccccc21)c1ccc2c(c1)sc1nc(-c3ccccc3)cn12 (stereo not drawn),/,.,/,.,.,/
COc1ccccc1-n1cnc2cc(NCc3ccccn3)ccc21,.,.,.,.,.[12.7 µM],.
CCc1ccc(CNc2ccc3c(c2)ncn3C)cc1,.,.,?,?,3.16µM,.
CCCn1cnc2cc(NCc3ccccn3)ccc21,.,.,?,.,10µM,?
COc1ccc(CNc2ccc3c(c2)ncn3C)cc1OC,.,.,/,/,39.8µM,/
SMILES,Sfp PPTase inh,miR-21 FLuc,KDM4E inh,Lamin A splicing,G9a inh,ALDH1A1 block
Cn1cnc2cc(NCc3ccccc3O)ccc21,.,.,/,/,.,/
CC1CC=CC2C1C(=O)N(Cc1ccccc1)C2c1ccc(F)c(/C=C/c2ccccc2)c1 (stereo not drawn),.,/,/,/,/,/
O=c1cc(-c2cccc(F)c2)[nH]c2cc(F)ccc12,.,/,/,/,.,.
CCCCCNc1nc(N2CCCC2)c2c(c1C#N)CCN(C)C2,.,.,?,?,50.1µM,.
O=C(Nc1ccc(S(=O)(=O)Nc2ncccn2)cc1)c1ccc(S(=O)(=O)N2CCCC2)cc1,.,.,.,?,?,25.1µM
N#CCCSc1ccccc1NC(=O)c1ccc(S(=O)(=O)N2CCCC2)cc1,5.62µM,.,.,.,10µM,2.51µM
O=C(Nc1ccccc1F)c1ccc2ncsc2c1,.,.,/,/,44.7µM,/
Cc1ccnc(NS(=O)(=O)c2ccc(NC(=O)c3ccc(S(=O)(=O)N4CCCC4)cc3)cc2)n1,.,.,.,.,.,?
Cc1ccc(S(=O)(=O)N2CCCCC2)cc1C(=O)Nc1ccc(S(=O)(=O)Nc2ncccn2)cc1,.,.,.,/,50.1µM,.
O=C(Nc1ccc(F)cc1F)c1ccc2ncsc2c1,.,.,/,/,.,/
O=C(Nc1nc2c(s1)CCCC2)c1ccc2ncsc2c1,25.1µM,.,.,?,?,.
O=C(Nc1ccc(S(=O)(=O)Nc2ncccn2)cc1)c1ccc2ncsc2c1,?,.,3.16µM,/,44.7µM,7.08µM
Cc1cccc(C(=O)Nc2nc3c(s2)CCCC3)c1,/,.,/,.,.,/
Cc1cccc(NC(=O)c2c(NC(=O)c3ccco3)sc3c2CCC(C(C)(C)C)C3)c1 (stereo not drawn),/,.,/,/,.,/
NC(=O)C[C@H](N)C(N)=O,/,/,/,/,/,.[13.5 µM]
COC(=O)c1c(C)[nH]c(C(=O)COC(=O)CCNS(=O)(=O)c2cccc(C(F)(F)F)c2)c1C,/,/,/,/,.[2.33 µM],/
COc1ccccc1-n1nnnc1SCC(=O)NC1CC1,/,/,/,/,.,/
COc1ccc(CCNC(=O)CSc2nnnn2-c2ccccc2OC)cc1OC,.,.,.,.,.,0.282µM
COc1ccc(CCNC(=O)CSc2nnnn2C)cc1OC,.,.,.,?,.,.
COc1ccc(C)cc1-n1nnnc1SCC1CCCCO1 (stereo not drawn),.,.,.,.,.,31.6µM
COc1ccc(CCNC(=O)CSC(=O)c2ccccc2)cc1OC,44.7µM,.,.,.,17.8µM,?
COc1ccccc1-n1nnnc1SCC(=O)NCC1CCCO1 (stereo not drawn),/,/,/,/,56.2µM,/
CCNC(=O)c1nn(-c2ccccc2C)nc1CO,/,.,/,/,.,/
COc1ccc(CCNC(=O)CNCC(c2ccccc2)N(C)C)cc1OC (stereo not drawn),?,.,/,/,8.91µM,/
COc1ccc(CCNC(=O)CSc2ccccn2)cc1OC,.,.,.,.,11.2µM,.
SMILES,Sfp PPTase inh,miR-21 FLuc,KDM4E inh,Lamin A splicing,G9a inh,ALDH1A1 block
COc1ccccc1-n1nnnc1SCC(=O)Nc1ccc(C)c(N)c1,79.4µM,.,/,/,?,/
CCOc1ccc(CCNC(=O)CSc2n[nH]c(N)n2)cc1OCC,?,.,/,/,8.91µM,/
COc1ccc(-c2cc(C(=O)O)n(Cc3ccccc3)n2)cc1,/,.,/,/,.,/
COc1cc(NC(=O)CCCOc2cc(=O)n(C)c3ccccc23)cc(OC)c1OC,/,.,/,/,.,/
CN(C)c1ccc(C(=O)NN2C(=O)c3ccccc3C2=O)cc1,.,.,.,/,.,.
CC(=O)NC1=C(Nc2ccc(N(C)C)cc2)C(=O)c2ccccc2C1=O,.,.,/,/,31.6µM,/
CN(C(=O)Nc1ccccc1)C1CCS(=O)(=O)C1 (stereo not drawn),.,.,.,.,.,.
CC(=O)NC1=C(N(C)C2CCS(=O)(=O)C2)C(=O)c2ccccc2C1=O (stereo not drawn),.,.,.,?,7.94µM,?
CCN(CC)S(=O)(=O)c1cc(-c2onc(C)c2C)ccc1OC,/,.,/,/,.,/
Cc1cc2c(c(=O)n1Cc1ccccn1)C(c1ccc3c(c1)OCO3)C(C#N)=C(N)O2 (stereo not drawn),.,.,.,.,.[12.7 µM],12.6µM

# From PubChem
